{"source": "patent US9706755B2", "about": "“Controlled odor mimic permeation system” (dated 2017)", "key": {"[1]": {"assay": "Permeation of odor compounds through 2.0 mil LDPE bags (gravimetric)", "conditions": "gradient of mass loss over time"}, "[2]": {"assay": "Permeation of odor compounds through different polymer chemistries (gravimetric)", "conditions": "25.0 mg on gauze; LDPE 1.5-4.0 mil, polypropylene, cellophane, Kapak; 1 month"}, "[3]": {"conditions": "cited from earlier work"}, "[4]": {"tested_on": "previously trained explosives detection canines", "assay": "Field testing of the first double bag training aid design (Table 90)", "conditions": "for dogs alerting: 10 mg on gauze in 2.0 mil LDPE"}, "[5]": {"tested_on": "explosives detection canines", "assay": "Overall / individual canine performance (alerts plus interests over all hides; real explosives, odor chemicals, NESTT silica and petrolatum aids; Tables 69-72)"}, "[6]": {"tested_on": "trained and certified explosives detection canines", "assay": "Canine field trials, active odor determination (odor line-up of hide boxes)"}, "[7]": {"tested_on": "explosives detection canines", "assay": "First field test of gauze mimic aids, COMPS kits (Table 94)", "conditions": "10.0 mg on cotton gauze in LDPE; dogs 140 & 141 excluded"}, "[8]": {"tested_on": "explosives detection canines", "assay": "Follow-up testing of C-4 mimic aids (Table 96)", "conditions": "four canines"}, "[9]": {"conditions": "100 μl at 100.00 ppm on Gauze in 2.5 mil Al Kapak, in Electrical Box, ten dogs"}, "[10]": {"conditions": "aid removed from the outer packaging"}, "[11]": {"conditions": "canines 108, 109 and 118, most experienced teams"}, "[12]": {"conditions": "six of dogs 121-129, imprinted on RDX, tested after first exposure to C-4"}, "[13]": {"conditions": "Table 58, 0.5 μl in 2.0 mil LDPE"}, "[14]": {"conditions": "Table 59, 10.0 μl in 2.0 mil LDPE"}, "[15]": {"conditions": "Table 60, 25 μl in 2.0 mil LDPE"}}, "data": [{"compound": "CC(C)([N+](=O)[O-])C(C)(C)[N+](=O)[O-]", "values": [{"measurement": "permeation rate through LDPE", "setting": "[1]", "result": 1030, "unit": "pg/s"}, {"measurement": "permeation through different polymers (qualitative)", "setting": "[2]", "result": "no discernable difference between the rate of loss from the different polymers"}, {"measurement": "Vapour Pressure at 25° C.", "setting": "[3]", "result": "2.1 × 10^−3 torr"}]}, {"compound": "CCCCC(CC)CO", "note": "(centres unmarked)", "values": [{"measurement": "% Alert", "setting": "[4]; 100 μl at 100.00 ppm on Gauze in 2.0 mil LDPE, in Electrical Box, ten dogs", "result": 70, "unit": "%"}, {"measurement": "% Alert", "setting": "[4]; [9]", "result": 10, "unit": "%"}, {"measurement": "Alert (dog numbers)", "setting": "[4]; [9]", "result": 116}, {"measurement": "dogs giving interest without alert", "setting": "[4]; [10]", "result": "three dogs"}, {"measurement": "dogs alerting", "setting": "[4]; [10]", "result": "seven out of ten"}, {"measurement": "dogs alerting", "setting": "[4]; aid still in the aluminised Kapak outer bag", "result": "one in ten"}, {"measurement": "overall canine population response to odor chemical (alert/interest)", "setting": "[5]; Table 70, all field tests pooled, canines 120, 140, 141 discounted", "result": 74.4, "unit": "%"}, {"measurement": "combined result", "setting": "[5]; [11]", "result": 86.7, "unit": "%"}, {"measurement": "combined result (responses / hides)", "setting": "[5]; [11]", "result": "13/15"}, {"measurement": "alerts (canines alerting / canines tested)", "setting": "[5]; [12]", "result": "2/6"}, {"measurement": "interests (canines showing interest / canines tested)", "setting": "[5]; [12]", "result": "2/6"}, {"measurement": "alerts (canines alerting / canines tested)", "setting": "[6]; Table 57, 5.0 mg", "result": "8/9"}, {"measurement": "interests (canines showing interest / canines tested)", "setting": "[6]; Table 57, 5.0 mg", "result": "1/9"}, {"measurement": "% Alert", "setting": "[6]; Table 57, Quart Can, 50 μl at 10% w/v Acetonitrile on Cotton in Open Vial, 9 canines", "result": 88.9, "unit": "%"}, {"measurement": "alerts (canines alerting / canines tested)", "setting": "[6]; [13]", "result": "2/10"}, {"measurement": "interests (canines showing interest / canines tested)", "setting": "[6]; [13]", "result": "0/2"}, {"measurement": "alerts (canines alerting / canines tested)", "setting": "[6]; [14]", "result": "7/10"}, {"measurement": "interests (canines showing interest / canines tested)", "setting": "[6]; [14]", "result": "3/10"}, {"measurement": "alerts (canines alerting / canines tested)", "setting": "[6]; [15]", "result": "2/12"}, {"measurement": "interests (canines showing interest / canines tested)", "setting": "[6]; [15]", "result": "5/12"}, {"measurement": "% Alert", "setting": "[6]; Table 61, 100 ng (100 μl at 1 ppm Acetonitrile) on Cotton", "result": 6.7, "unit": "%"}, {"measurement": "% Alert", "setting": "[6]; Table 61, 1 ug (100 μl at 10 ppm Acetonitrile) on Cotton", "result": 6.7, "unit": "%"}, {"measurement": "% Alert", "setting": "[6]; Table 61, 10 ug (100 μl at 100 ppm Acetonitrile) on Cotton", "result": 6.7, "unit": "%"}, {"measurement": "% Alert", "setting": "[6]; Table 61, 100 ug (100 μl at 1000 ppm Acetonitrile) on Cotton", "result": 13.3, "unit": "%"}, {"measurement": "% Alert", "setting": "[6]; Table 61, 1 mg (100 μl at 10,000 ppm Acetonitrile) on Cotton", "result": 13.3, "unit": "%"}, {"measurement": "% Alert", "setting": "[6]; Table 61, 10 mg (100 μl at 100,000 ppm Acetonitrile) on Cotton", "result": 33.3, "unit": "%"}, {"measurement": "amount to which most dogs alerted", "setting": "[6]; Table 61 detection level study", "result": "1 to 10", "unit": "mg"}, {"measurement": "lowest amount to which one dog gave an alert", "setting": "[6]; Table 61 detection level study", "result": 10, "unit": "ng"}, {"measurement": "interest", "setting": "[7]", "result": 33, "unit": "%"}, {"measurement": "positive response", "setting": "[7]", "result": 50, "unit": "%"}, {"measurement": "Interest (dog numbers)", "setting": "[8]; 10 μl on Gauze in 2 mil LDPE, Electrical Box", "result": 118}, {"measurement": "interests (canines showing interest / canines tested)", "setting": "[8]; Table 96, 10 μl", "result": "1/4"}]}]}
